Values of other authors in patent publication US10948221B1 (priority 2020, dated 2021).

System: rat
Conditions: in vivo

NaCl
LD50 (oral-rat; mg/kg): 3000 mg/kg
